This test addresses T1, IDO1 enzyme in Hela cells (Homo sapiens, UniProt P14902).
T1 construct: endogenous in cells; host or cells: HeLa cells stimulated with human recombinant IFN-γ
Put plainly: Inhibition of IDO1 enzyme in IFN-γ stimulated Hela cells (kynurenine read at 480 nm). It is filed as cell-based.

By UniProt entry, the sequences of proteins in these tests, tags left out.
UniProt P14902, whole entry: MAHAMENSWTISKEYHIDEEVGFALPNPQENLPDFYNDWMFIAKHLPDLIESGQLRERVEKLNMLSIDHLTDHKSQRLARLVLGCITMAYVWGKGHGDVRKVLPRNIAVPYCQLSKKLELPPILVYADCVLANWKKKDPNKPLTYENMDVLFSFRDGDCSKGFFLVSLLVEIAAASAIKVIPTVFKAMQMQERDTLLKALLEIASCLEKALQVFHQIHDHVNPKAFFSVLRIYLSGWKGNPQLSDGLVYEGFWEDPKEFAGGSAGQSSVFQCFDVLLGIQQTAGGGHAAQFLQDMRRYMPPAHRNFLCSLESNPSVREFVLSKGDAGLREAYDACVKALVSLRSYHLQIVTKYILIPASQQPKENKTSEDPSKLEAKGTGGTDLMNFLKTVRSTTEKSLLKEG

This is an account of results in patent publication US11370762B2, “Vinylarene derivative and application” (SHENYANG RESEARCH INSTITUTE OF CHEMICAL INDUSTRY CO., LTD., priority 2017, dated 2022).

In the case of `CCCCN(CCCC)c1ccc(/C(C)=C/C(=O)O)cc1NC(=O)Nc1ccc(C)cc1` [Compound 525, (E)-3-(4-(dibutylamino)-3-(3-(p-tolyl)ureido)phenyl)but-2-enoic acid], 1.36 nM corresponded to half-maximal inhibition (IC50). Further, the inhibition – broadly, how much of the control response was suppressed – at 0.1 µM (HeLa, 48 h, read-out: Inhibition rate (%) 100 nmol) stood at 75.1%. The inhibition at 10 µM (HeLa, 48 h, read-out: Inhibition rate (%) 10 μmol) was found to be 100%. Further, the “activity compared with positive control drugs INCB024360 and IN-4” value (Hela cells, IC50 comparison) was “can reach or exceed those of the positive control drugs INCB024360 and IN-4”.
